## AlphaSeq binding of Ab-14 heavy chain variants to a spike HR2 peptide

The target is the same throughout: PDVDLGDISGINAS, from the HR2 region of SARS-CoV-2 spike.

Parent: Ab-14, a human scFv built as VH, the linker GGGGSGGGGSGGGGS, VL. Only the CDRs of the heavy chain vary.
VH: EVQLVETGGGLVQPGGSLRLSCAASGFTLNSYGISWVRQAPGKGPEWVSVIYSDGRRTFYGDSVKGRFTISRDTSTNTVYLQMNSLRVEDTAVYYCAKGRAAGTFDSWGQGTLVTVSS
VL: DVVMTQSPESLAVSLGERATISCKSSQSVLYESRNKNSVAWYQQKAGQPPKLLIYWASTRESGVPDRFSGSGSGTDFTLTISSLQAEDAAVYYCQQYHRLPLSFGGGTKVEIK

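Phage display of a naive human antibody library on the peptide gave the parent. Designed CDR sequences, proposed from the first random library and measured here. Group labels follow the data file (Ctrl: baseline library sampled from a position-specific scoring matrix, with some repeated check sequences; GPLM: also part of the Gaussian process libraries; Gibbs: Gibbs sampling; a sequence that several methods proposed may carry one label only). In AlphaSeq, yeast of one mating type display the scFv and yeast of the other type display the target. Binding brings cells together so that they mate, and sequencing counts the barcode pairs among the diploids. Scores were corrected for input abundance and mapped to Kd with protein pairs of known affinity run in the same pool. There are six technical replicates.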

The parent's heavy chain CDRs are GFTLNSYGIS, VIYSDGRRTFYGDSVK, GRAAGTFDS; each variant's own CDRs replace them letter for letter. Scale: log10 of Kd in nM, estimated from mating counts; low values are strong binders. Where no diploid with the target was found in that replicate, the entry reads "ND": below detection, most likely a poor binder, though not proof of it.

CDR-H1,CDR-H2,CDR-H3,group,log10 Kd (nM) by replicate,signal with controls
GFNLNSYGYS,VIYSDGRRTFYGDSVK,GRAAGTFDS,Ctrl,ND ND ND ND ND ND,0/18
GFTLNSYGIS,VIYSDGRRTFYLDSVK,GQAAGTFDS,Ctrl,ND 0.61 1.48 0.90 1.70 0.94,0/18
GFTLMSYGIS,VIYSDGRRTFYQDSVK,GRAAGTFFS,Ctrl,ND 0.55 ND ND ND ND,0/18
GFTLNSYGIS,VIYSDGLRTFYQPSVK,GRAAGTFDS,Ctrl,1.45 ND ND ND ND ND,0/18
GFTLNNYGIS,VPYSDGRRTFYGDKVK,GRAAGQFDS,Ctrl,ND ND ND ND ND ND,0/18
GFTLNSYGIS,VIYSDGYRTAYGDSVK,GRAAGTFDS,Ctrl,2.68 1.29 1.20 1.73 1.69 1.11,2/18 (2.97)
GATLNSYGIS,VIYSDGRRTFYGDSVK,GMAAGTFDS,Ctrl,0.64 0.79 0.50 0.23 1.03 1.96,0/18
GFTLNSYGIH,VIYSDGRRTFYGDSVK,NQAAGTFDS,Ctrl,ND ND ND ND ND ND,0/18
GFTLNSYGIT,VIYSDGRRTFYLDSVK,GQAAGTFDS,Ctrl,ND ND ND ND ND ND,0/18
GFTLNSYGIS,VIYSDGRRTFYGDSVK,GRVAGTFDF,Ctrl,ND ND ND ND 1.33 ND,0/18
GFTLNSYGIS,VIYSDGRRTHYYDSVK,GRAAGTFDS,Ctrl,ND ND ND ND ND ND,0/18
GFMLNQYGIS,VIYSDGRRTFYGDSVK,GRAAGTFDS,Ctrl,1.10 1.27 0.56 2.15 1.17 0.82,0/18
GFTLNSYGIS,VIYSDGRRTFYGDNVK,GRAAGTFDL,Ctrl,1.27 ND ND ND ND ND,0/18
GFTLNSYGIS,SIYSDGRRTFYGDSVK,NRAKGTFDW,Ctrl,ND ND ND ND ND ND,0/18
GFTPNSYGIS,VIYSDGRRTAYSDSVK,NRNAGTFDS,Ctrl,ND ND ND ND ND ND,0/18
GFTLDSYGIS,VIYSDGRRTFYTDSFK,GRAAGTFDS,Ctrl,ND ND ND ND ND ND,0/18
GFTLNSYGIS,VIYSDGRRTFYGDSVK,GRWAGTADC,Ctrl,ND ND ND ND ND ND,0/18
GFTLNSYGIS,VIYSDGRRTFYGDKVK,GRAAGTFDS,Ctrl,ND ND ND ND ND 1.82,0/18
GFTLNSYGIS,VIYSDGRRTFYHDSVK,GRYALTFDS,Ctrl,ND ND ND ND ND ND,0/18
GFDLNSYGIS,VIYSDGRRTFYGDNVK,GRAAGTFDS,Ctrl,0.41 -0.13 0.96 -0.10 1.11 0.09,1/18 (1.14)
GFTLNDMGIS,VIYSDGRRTFYGDSVK,GREAGTFDT,Ctrl,1.14 0.97 1.19 0.96 0.34 0.78,0/18
GFSLNSYGIS,VIYSDGRRTFYSDNVK,GRAAGTFMS,Ctrl,ND ND ND ND ND ND,0/18
GFNLNSYGIS,VIYSDGRRTFYGDSVK,GDAAGTFDS,Ctrl+GPLM_Gibbs,1.45 1.24 1.40 1.09 1.02 1.79; 1.00 0.34 0.31 0.31 0.30 0.11,0/36
GFHLKSYGIS,VIYSDGKRTFYDDSVK,GRAAGTFDS,Ctrl,1.47 1.99 2.27 3.66 2.29 1.87,0/18
GFTLTSYGIS,VIYSDGRRTFYGDQVK,GEAAGTFDS,Ctrl,ND 1.74 ND ND 1.51 1.31,0/18
GFTLNSYGIS,VIYEDGRRTFYHDSVK,GRAAGTFDS,Ctrl,ND ND ND ND ND ND,0/18
GFALNSYGIS,VIYSDGRRTAYGDSYK,GRAAGTFDS,Ctrl,2.19 1.63 1.92 ND 2.10 ND,1/18 (2.17)
GETLNDYGIS,VIYSDGRRTEYADSVK,GSAAGTFDS,Ctrl,ND ND ND ND ND ND,1/18 (2.55)
GNTLNEYGIS,VIYSDGRRTFYADSVK,GRAAGTFDS,Ctrl,0.97 1.31 1.03 0.18 0.53 0.90,1/18 (1.80)
GFTLNSYGIS,VIYSDGRRTFYGDSVK,GRMAGTFDL,Ctrl,1.14 ND ND ND 1.19 1.25,0/18
GQKLNNYGIS,VIYADGRRTFYGDSVK,GRGAGIFDS,Ctrl,ND ND ND ND ND ND,0/18

For reference, 4 entries of the list once more:

CDR-H1,CDR-H2,CDR-H3,group,log10 Kd (nM) by replicate,signal with controls
GFTLNSYGIS,VIYSDGRRTFYLDSVK,GQAAGTFDS,Ctrl,ND 0.61 1.48 0.90 1.70 0.94,0/18
GFTPNSYGIS,VIYSDGRRTAYSDSVK,NRNAGTFDS,Ctrl,ND ND ND ND ND ND,0/18
GFTLDSYGIS,VIYSDGRRTFYTDSFK,GRAAGTFDS,Ctrl,ND ND ND ND ND ND,0/18
GFMLNQYGIS,VIYSDGRRTFYGDSVK,GRAAGTFDS,Ctrl,1.10 1.27 0.56 2.15 1.17 0.82,0/18

As a blank, each scFv also met three strains without target: over all heavy chain designs, 1% of these pairings were detected, typically at 2.08 and seldom below 0.84. The control count says in how many pairings with the empty strains this scFv gave a signal, with their mean in brackets. A sequence that the file lists under several names has all its replicates listed entry by entry, parted by semicolons. A sequence measured in both rounds can read differently, since the two assays cover different ranges. The authors averaged sequences with at least three values out of six and counted those with two or fewer as poor binders. The parent sequence was in this pool as ten entries: three were never detected, three once, and four in most replicates, with averages from 0.34 to 2.37.

Reference: Li et al. 2023, doi:10.1038/s41467-023-39022-2. File: FLAb, binding data.